According to patent publication US10973906B2, “Therapeutic peptides and vaccines” (priority 2005, dated 2021):

Conditions: electron microscopy

ASTTTNYT [Peptide T]
fibril formation: formed fibrils
